# Experimental data: US20200289514A1, “Novel Pyrazolo Pyrimidine Derivatives” (Novartis AG, priority 2015, published 2020)
# Target: T1, C-domain of MALT1 (amino acids 329-824) (Homo sapiens, UniProt Q9UDY8)
# T1 sequence (Q9UDY8 329-824): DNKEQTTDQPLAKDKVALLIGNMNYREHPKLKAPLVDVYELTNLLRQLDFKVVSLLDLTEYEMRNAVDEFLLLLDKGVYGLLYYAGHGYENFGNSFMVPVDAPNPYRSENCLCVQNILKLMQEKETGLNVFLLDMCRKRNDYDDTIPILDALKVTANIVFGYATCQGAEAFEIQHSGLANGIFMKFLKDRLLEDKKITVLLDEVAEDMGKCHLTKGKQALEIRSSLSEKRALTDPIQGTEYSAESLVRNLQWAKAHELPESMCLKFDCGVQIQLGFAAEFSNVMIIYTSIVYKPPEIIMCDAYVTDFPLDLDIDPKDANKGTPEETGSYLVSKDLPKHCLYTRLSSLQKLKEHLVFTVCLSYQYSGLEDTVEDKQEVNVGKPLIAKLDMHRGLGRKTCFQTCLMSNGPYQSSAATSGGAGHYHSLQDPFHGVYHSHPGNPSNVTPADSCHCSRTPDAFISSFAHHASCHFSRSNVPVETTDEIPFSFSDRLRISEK
# Assay: MALT1 Biochemical Assay - Version 1 (fluorescence lifetime)
structure (smiles),measurement,value
"CO[C@@H](C)[C@H](OC)c1c(NC(=O)Nc2cnc(-n3nccn3)c(Cl)c2)cnc2cc(Cl)nn12 [Example 10, 1-(5-chloro-6-(2H-1,2,3-triazol-2-yl)pyridin-3-yl)-3-(2-chloro-7-((1R, 2S)-1,2-dimethoxypropyl)pyrazolo[1,5-a]pyrimidin-6-yl) urea]",IC50,3 nM
